From ChEMBL document CHEMBL1151820, “Antagonists of the P2X(7) receptor. From lead identification to drug development” (J Med Chem, 2009)

Sequences of proteins named here, by UniProt entry; tags and fusion partners are left off. A change or cut given only in a name is not applied to a line headed by its entry.
UniProt Q99572: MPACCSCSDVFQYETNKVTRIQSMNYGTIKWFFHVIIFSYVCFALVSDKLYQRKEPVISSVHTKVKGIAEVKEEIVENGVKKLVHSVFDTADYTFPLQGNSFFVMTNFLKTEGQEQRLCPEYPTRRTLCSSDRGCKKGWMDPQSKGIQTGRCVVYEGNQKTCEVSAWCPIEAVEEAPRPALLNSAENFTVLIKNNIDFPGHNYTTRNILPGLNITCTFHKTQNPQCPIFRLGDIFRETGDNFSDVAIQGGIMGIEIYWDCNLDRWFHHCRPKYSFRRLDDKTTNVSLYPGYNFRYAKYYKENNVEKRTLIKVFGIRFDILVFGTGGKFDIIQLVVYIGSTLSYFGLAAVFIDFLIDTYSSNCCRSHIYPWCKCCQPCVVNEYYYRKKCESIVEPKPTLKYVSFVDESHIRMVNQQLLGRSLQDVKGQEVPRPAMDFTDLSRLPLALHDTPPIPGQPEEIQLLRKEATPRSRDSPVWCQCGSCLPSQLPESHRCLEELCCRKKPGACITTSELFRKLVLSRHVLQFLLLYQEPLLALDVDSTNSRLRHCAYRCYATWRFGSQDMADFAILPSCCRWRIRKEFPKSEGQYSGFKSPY

Target: P2X purinoceptor 7 (Homo sapiens, UniProt Q99572)
Assay: Antagonist activity at P2X7 receptor in human THP1 cells assessed as inhibition of BzATP-induced ethidium uptake
Assay type: functional, cell-based, THP-1

Compound `O=C(Cc1ccc(Cl)c(C(F)(F)F)c1)Nc1cccc2c(=O)n(CCO)ccc12` has an IC50 of 2 nM.
